In general, MIC refers to the least concentration at which growth counts as inhibited.

MIC data for one sequence are collected here from ChEMBL document CHEMBL3351521, “Benzene-1,3-dicarboxylic acid 2,5-dimethylpyrrole derivatives as multiple inhibitors of bacterial Mur ligases (MurC-MurF)” (Bioorg Med Chem, 2014).

The test system of the experiment is Staphylococcus aureus. The settings on record: ATCC 29213.

As for GENTAMICIN, the lowest concentration to inhibit growth (MIC) was 0.5 µg/mL.
